Literature values as cited in paper PMC10952301, “Solid‐Phase Synthesis and Biological Evaluation of Peptides ADP‐Ribosylated at Histidine” (Angewandte Chemie (International Ed. in English), 2023).

Details: quoted without reference to compare leaving group capacity

Compound: c1c[nH]cn1 [imidazole]
- pKa: 14.5
